This note sets out measurements from publication PMC6332427, “Drug Discovery of Host CLK1 Inhibitors for Influenza Treatment” (Molecules, 2015).

Data set [1] deals with influenza virus A/PR/8/34 (H1N1). The experiment in a line: in vitro.
The next data set deals with MDCK cells. The data set is described as follows: Cytotoxicity assay in MDCK cells (MTT, 72 h). As to conditions: more than 90% cells viable.
Setting [2] is: Pre-Treatment Assay SI (selective index, CC50/EC50).
The mark [3] stands for this setting: Simultaneous Treatment Assay SI (selective index, CC50/EC50).

SMILES strings stand for the structures.

`O=C(O[C@@H]1Cc2c(O)cc(O)cc2O[C@@H]1c1cc(O)c(O)c(O)c1)c1cc(O)c(O)c(O)c1` [J14080, Epigallocatechin gallate]: the selectivity ratio in data set [1] (setting [2]) was 6.98; in data set [1] (setting [3]), 4.78.
In the case of `NC(=O)c1ncn([C@@H]2O[C@H](CO)[C@@H](O)[C@H]2O)n1` [Ribavirin, reference compound], the “CC0 (maximal non-cytotoxic concentration)” value with MDCK cells came out at 100 µg/mL. The selectivity ratio in data set [1] (Post-Treatment Assay SI (selective index, CC50/EC50)) was above 14.5; in data set [1] (setting [2]), above 45.9; in data set [1] (setting [3]) it was above 19.4.
